The list shows a part of the results.

The assay relates to A. baumannii ATCC 17978. Put plainly: relative growth (fraction of control); higher = less inhibition. As to conditions: 50 µM.
`O=S1(=O)[C@@H]2C[C@H]3C=CC2(CN1C1CC1)O3`: the relative growth was 1.01. With `CCCCC(=O)N1c2ccccc2[C@H](Nc2ccccc2)C[C@@H]1C`, the relative growth amounted to 0.645. To `CC(C)[Si](C#C[Si](C(C)C)(C(C)C)C(C)C)(O[C@H](C)c1cn(Cc2cccc(Cl)c2)nn1)C(C)C` belongs 0.76.

Compound `O=C(C[C@H]1CC[C@H](NC(=O)CN2CCOCC2)[C@H](CO)O1)NCCc1ccncc1` gave a relative growth of 1.09. Next, `CS(=O)(=O)CS(=O)(=O)C1=C(N2CCOCC2)C2CCN1CC2`: 1.02.

In turn, `COC(=O)C[C@H]1CC[C@H]2[C@@H](COC[C@H](O)CN2S(=O)(=O)c2ccccc2C)O1` yielded a relative growth of 0.941.

Take `C=CC(C)(O)CCC=C(C)CCC=C(C)C` (mixture of isomers): the relative growth came to 0.85. To `Cc1ccc(-c2csc(-c3ccc(C(F)(F)F)cc3)n2)cc1` belongs 0.887. To `CC(=O)O[C@@H]1[C@@H]2C[C@@H]([C@H]1OC(C)=O)[C@@H]1C(=O)N(C)C(=O)[C@@H]21` belongs 1.03; to `CN1CCN(C(=O)C[C@@H]2C=C[C@@H](NC(=O)c3ccc4c(c3)OCO4)[C@@H](CO)O2)CC1`, 1.13; to `CC(C)(O)[C@@H]1CC[C@](C)([C@H]2[C@@H](O)C[C@@]3(C)C4C[C@H](O[C@@H]5O[C@H](CO)[C@@H](O)[C@H](O)[C@H]5O)C5C(C)(C)[C@@H](O[C@@H]6OC[C@@H](O)[C@H](O)[C@H]6O)CC[C@@]56C[C@@]46CC[C@]23C)O1` (stereo partly specified), 1.03. To `O=C1C(Cl)=C2OC[C@@]2(O)C[C@@H]2CCCN12` belongs 0.98. In the case of `CC(C(=O)O)c1cccc(Oc2ccccc2)c1` (stereo unspecified), the relative growth is 1.02. Next, `c1ccc(-c2nn(-c3ccccc3)c3c2cnc2ccccc23)cc1`: 1.05; `Clc1ccc(-c2cc[nH]n2)cc1`: 0.818. To `C[C@H]1CN([C@@H](C)CO)S(=O)(=O)c2ccc(C#Cc3cccnc3)cc2O[C@H]1CN(C)C(=O)CN(C)C` belongs 1.07; to `COc1ccc2c(C)cc(=O)oc2c1`, 0.956.

`O=C1OC(c2ccc(O)cc2)(c2ccc(O)cc2)c2ccccc21` showed a relative growth of 1.11. To `COc1cc(C(=S)N2CCOCC2)ccc1O` belongs 1.05; to `COc1cc(OC)c2c(=O)cc(-c3ccccc3)oc2c1`, 1.1. To `C[C@@H]1CN([C@@H](C)CO)S(=O)(=O)c2ccc(C#CCN(C)C)cc2O[C@H]1CN(C)C(=O)Nc1ccccc1F` belongs 0.976. `CCS(=O)(=O)NCC[C@H]1CC[C@H](NC(=O)Cc2ccccn2)[C@@H](CO)O1` registered a relative growth of 1.01.

`CN(C)C(=O)C[C@H]1CC[C@@H](NC(=O)C2CC2)[C@H](CO)O1`: the relative growth is 1.04. To `COc1ccc(-c2ccccn2)cc1` belongs 0.889; to `Nc1cccc(-n2cc(CCC(=O)NO)nn2)c1`, 1.09. With `COc1cccc(S(=O)(=O)N[C@@H]2CC[C@H](CCn3cc(-c4ccccc4OC)nn3)O[C@@H]2CO)c1`, the relative growth was found to be 0.903.
